Here are results for two molecules from US8084467B2, “Pyrazole derivatives as cannabinoid receptor antagonists” (University of Connecticut, priority 2004, dated 2011).

Sequences of proteins named here, by UniProt entry; tags and fusion partners are left off.
UniProt P20272, whole entry: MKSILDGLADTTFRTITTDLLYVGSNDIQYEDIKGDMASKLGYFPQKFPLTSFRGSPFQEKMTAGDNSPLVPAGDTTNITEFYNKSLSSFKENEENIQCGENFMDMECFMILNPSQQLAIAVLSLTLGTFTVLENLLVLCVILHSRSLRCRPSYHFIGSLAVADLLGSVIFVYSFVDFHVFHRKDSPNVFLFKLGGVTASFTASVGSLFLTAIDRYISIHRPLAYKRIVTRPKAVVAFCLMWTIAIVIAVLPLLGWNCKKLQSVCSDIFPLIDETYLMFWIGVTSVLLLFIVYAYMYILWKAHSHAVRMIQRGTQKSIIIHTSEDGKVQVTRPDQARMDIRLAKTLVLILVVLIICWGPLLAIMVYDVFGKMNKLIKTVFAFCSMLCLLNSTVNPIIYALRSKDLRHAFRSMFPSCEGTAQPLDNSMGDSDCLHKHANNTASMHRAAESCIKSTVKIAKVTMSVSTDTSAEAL
UniProt P47936, whole entry: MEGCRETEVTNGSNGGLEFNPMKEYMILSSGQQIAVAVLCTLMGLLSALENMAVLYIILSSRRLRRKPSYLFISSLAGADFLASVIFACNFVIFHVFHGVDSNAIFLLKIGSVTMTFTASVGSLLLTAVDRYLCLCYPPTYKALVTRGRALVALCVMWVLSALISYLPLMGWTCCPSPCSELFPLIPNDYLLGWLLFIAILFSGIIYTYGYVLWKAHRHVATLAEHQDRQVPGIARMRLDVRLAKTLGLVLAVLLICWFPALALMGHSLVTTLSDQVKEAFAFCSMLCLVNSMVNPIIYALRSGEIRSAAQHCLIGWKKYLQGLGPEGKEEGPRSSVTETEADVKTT

Like-named read-outs stand apart in the source and are kept apart here.

One test deals with CB1 cannabinoid receptor (Rattus norvegicus, UniProt P20272). Description: CB1 receptor binding, rat forebrain membranes, [3H] CP-55,940 displacement.
The target of another test is CB2 receptor (Mus musculus, UniProt P47936). Kind of test: CB2 receptor binding, mouse spleen membranes, same manner as the CB1 binding assay. The following applies: for selectivity CB2: ratio of CB1 Ki to CB2 Ki; for Ki: read-out: affinities Ki CB2, mouse spleen membranes, [3H] CP-55,940.
Setting [1] is: read-out: affinities Ki CB1, 0.8 nM [3H] CP-55,940.

On to `Cc1c(C(=O)NC23CC4CC(CC(C4)C2)C3)nn(CCCCCF)c1-c1ccccc1`, for which the Ki at CB1 cannabinoid receptor (setting [1]) stood at 1.2 nM; on CB1 cannabinoid receptor (read-out: affinities Ki CB1, 0.8 nM [3H] CP-55,940, listed as 9), 1.25 nM; at CB2 receptor, 0.7 nM; at CB2 receptor (listed as 9), 0.682 nM. On CB2 receptor, the selectivity CB2 was 1.7.
Consider `Cc1c(C(=O)NC23CC4CC(CC(C4)C2)C3)nn(CCCCCN=C=S)c1-c1ccccc1`, for which the Ki on CB1 cannabinoid receptor (setting [1]) worked out at 5.8 nM; at CB1 cannabinoid receptor (read-out: affinities Ki CB1, 0.8 nM [3H] CP-55,940, listed as 12) it was 5.76 nM; at CB2 receptor it was 0.5 nM; on CB2 receptor (listed as 12), 0.507 nM. In addition, the selectivity CB2 on CB2 receptor was 11.6.

Broadly, the Ki is the equilibrium dissociation constant of an inhibitor or competing ligand from its target.
